# Experimental data from patent US8624079B2, “Knockin mouse with a disruption in a PXR gene expressing human PXR” (ITI Scotland Limited, priority 2007, dated 2014).
# Like-named read-outs stand apart in the source and are kept apart here.
# Test system: cytochrome P450 enzymes
# Details: for induction of 6-beta-hydroxylation of testosterone: 10 mg/kg
compound,measurement,setting,value
CO[C@H]1/C=C/O[C@@]2(C)Oc3c(C)c(O)c4c(O)c(c(/C=N/N5CCN(C)CC5)c(O)c4c3C2=O)NC(=O)/C(C)=C\C=C\[C@H](C)[C@H](O)[C@@H](C)[C@@H](O)[C@@H](C)[C@H](OC(C)=O)[C@@H]1C [rifampicin],induction of 6-beta-hydroxylation of testosterone,"huPXR mice, 4 x ip daily",significant induction
same,induction of 6-beta-hydroxylation of testosterone,"mouse, in vivo, ip",no induction
same,induction of 16-beta-hydroxylation of testosterone,"wild type mice, rifampicin 3 and 10 mg/kg, 4 x ip daily",not in the wild type
